These results are taken from publication PMC5668088, “A phase I clinical trial of binimetinib in combination with FOLFOX in patients with advanced metastatic colorectal cancer who failed prior standard therapy” (Oncotarget, 2017).

The conditions of the data set: MTD of 45 mg twice daily binimetinib continuous dosing.

On to `O=C1[O][Pt]2([NH][C@@H]3CCCC[C@H]3[NH]2)[O]C1=O` [Oxaliplatin], for which the “Difference in oxaliplatin PK with vs without binimetinib” value was “no significant differences”.
